## Ab-14 heavy chain CDR variants: yeast mating affinities

Target peptide (SARS-CoV-2 spike, HR2 region): PDVDLGDISGINAS

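Variants in AAYL49 differ from the parent at up to three CDR positions; double and triple changes were sampled at random. In AlphaSeq, yeast of one mating type display the scFv and yeast of the other type display the target. The frequency of each diploid, read from paired DNA barcodes, reflects how well the two displayed proteins bind. Read counts were normalised to the haploid input and turned into Kd by a linear fit to BCL2-family pairs of known affinity, for each replicate. The assay was run in three technical replicates.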

The variants keep the light chain, the linker and the frameworks of Ab-14 (scFv order VH, the linker GGGGSGGGGSGGGGS, VL).
VH: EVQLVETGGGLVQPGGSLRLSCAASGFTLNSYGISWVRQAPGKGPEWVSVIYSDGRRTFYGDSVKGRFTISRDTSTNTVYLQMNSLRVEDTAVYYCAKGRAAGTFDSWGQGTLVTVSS
VL: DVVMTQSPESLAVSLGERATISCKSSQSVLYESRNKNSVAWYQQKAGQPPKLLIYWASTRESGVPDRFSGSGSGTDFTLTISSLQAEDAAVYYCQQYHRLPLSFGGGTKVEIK

Positions count from residue 1 of the parent VH; Y32K puts K in place of Y.
This list gathers variants with a substitution at D62 (VH, numbered from residue 1).
The read-out is the apparent dissociation constant on a log10 scale (nM): the lower, the stronger.
An entry "nd" has no value in the source: the pair was not observed among the diploids in that replicate. This suggests poor binding but is not conclusive.
In this assay the parent's reference entry averaged 0.65; its copy inside this library read 4.11 (one replicate of three).
Background: pairings of library AAYL49 with three empty control strains gave a value in 15% of cases (median 4.06, 5th percentile 2.83). Values in that range, when seen in few replicates, are hard to tell from nonspecific mating.

* Y32K/R56A/D62G: nd, nd, nd
* G26T/D54E/D62V: 4.93, 4.37, nd
* I34S/D62Y/V64T: nd, nd, nd
* S53I/D62T/K65E: nd, nd, 4.12
* G26W/G55V/D62I: nd, nd, nd
* F27S/D62V/G103P: nd, nd, nd
* Y60N/D62S/K65D: nd, nd, nd
* S31I/Y32K/D62C: nd, nd, nd
* L29F/D62P/A101C: nd, nd, nd
* I51P/D62G/S107V: nd, nd, nd
* N30D/I34R/D62N: nd, nd, nd
* S53Q/D54N/D62G: 4.21, nd, nd
* D54I/T58L/D62K: nd, nd, nd
* F27R/D62T/D106T: nd, nd, 3.09
* G61K/D62C/G103Q: nd, nd, nd
* F27D/Y60G/D62M: nd, nd, nd
* F27E/T58H/D62M: 3.01, 4.15, nd
* G26A/D62C/T104C: nd, nd, nd
* I51L/D62S/K65W: 2.91, 3.40, 2.54
* T28Y/D62F: nd, nd, nd
* Y60A/G61C/D62R: nd, nd, 4.93
* G33E/D62E/A102K: nd, nd, 5.45
* Y32R/S35G/D62H: nd, nd, nd
* D62R/V64S/F105E: nd, nd, nd
* D62P/A102P: 1.30, 1.19, 1.27
* L29T/D62R/R100N: 3.36, 3.61, nd
* Y32A/D62G/R100Q: nd, nd, nd
* Y52L/S53K/D62Q: nd, nd, nd
* D54H/D62N/S107P: nd, nd, nd
* D62S/S63G/F105W: nd, nd, nd
* F27W/D62C/K65H: nd, nd, nd
* G61R/D62T: nd, 5.05, 3.13
* G61W/D62Q/A102L: nd, nd, 4.13
* D62R/K65F/G103Y: 5.08, nd, nd
* D62I: nd, nd, nd
* Y32E/D54Q/D62M: nd, nd, nd
* T28I/D62F/T104M: nd, nd, nd
* D62M/R100H/A102P: nd, nd, nd
* Y32P/D62A/A101H: nd, nd, nd
* T28D/D62R: 3.06, nd, nd
* F27P/D62L/A102W: nd, nd, nd
* L29A/S53P/D62E: nd, 3.40, nd
* S31D/D62V/A101R: 3.23, 2.48, 2.41
* L29D/D62S/D106F: nd, nd, nd
* D62I/S63D/K65F: nd, nd, 4.10
* L29N/D62A/A101V: nd, nd, nd
* V50K/G55C/D62V: nd, nd, nd
* Y52P/D62T/G99F: 2.81, 3.34, nd
* T28W/D62P/G103P: 2.65, 2.22, 4.32
* G26C/D62E/A101L: nd, 2.64, 4.31
* I51H/T58L/D62H: 4.21, 4.01, 5.76

For reference, 4 entries of the list once more:

| changes | log10 Kd (nM) by replicate |
|---|---|
| Y32E/D54Q/D62M | nd, nd, nd |
| D62I/S63D/K65F | nd, nd, 4.10 |
| T28Y/D62F | nd, nd, nd |
| V50K/G55C/D62V | nd, nd, nd |

From the AlphaSeq antibody data of Engelhart et al. 2022 (doi:10.1038/s41597-022-01779-4), copy in the FLAb collection.